Test results published in patent US6812210B2, “Urocortin-III and uses thereof” (priority 2001, dated 2004).

Amino acid sequences for entries named in this document (tags omitted). Residues count along the entry.
UniProt P47866, whole entry: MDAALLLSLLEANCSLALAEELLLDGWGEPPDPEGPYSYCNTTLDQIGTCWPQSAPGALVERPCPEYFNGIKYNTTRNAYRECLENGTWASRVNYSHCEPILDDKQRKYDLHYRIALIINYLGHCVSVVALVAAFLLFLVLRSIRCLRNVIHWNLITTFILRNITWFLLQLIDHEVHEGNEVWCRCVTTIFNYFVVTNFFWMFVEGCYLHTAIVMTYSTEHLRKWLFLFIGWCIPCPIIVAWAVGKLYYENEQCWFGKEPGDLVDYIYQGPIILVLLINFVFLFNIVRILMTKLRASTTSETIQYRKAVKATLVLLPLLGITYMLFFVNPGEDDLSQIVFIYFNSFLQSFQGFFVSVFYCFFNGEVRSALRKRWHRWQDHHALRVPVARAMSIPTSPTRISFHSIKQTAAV
UniProt P47866, 1-431 isoform P47866-2: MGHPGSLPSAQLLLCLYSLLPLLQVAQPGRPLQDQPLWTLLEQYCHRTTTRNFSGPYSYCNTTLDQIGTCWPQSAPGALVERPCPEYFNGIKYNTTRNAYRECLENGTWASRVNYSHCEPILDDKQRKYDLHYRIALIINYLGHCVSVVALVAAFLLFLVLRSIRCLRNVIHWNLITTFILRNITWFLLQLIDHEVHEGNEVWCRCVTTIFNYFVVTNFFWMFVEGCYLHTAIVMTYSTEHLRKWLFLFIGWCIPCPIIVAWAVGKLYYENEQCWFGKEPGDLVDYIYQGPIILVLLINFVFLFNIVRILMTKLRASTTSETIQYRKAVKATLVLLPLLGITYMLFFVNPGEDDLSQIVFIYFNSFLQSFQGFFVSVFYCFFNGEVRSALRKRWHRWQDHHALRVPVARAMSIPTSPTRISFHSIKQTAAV
UniProt Q60748, 1-431 isoform Q60748-2: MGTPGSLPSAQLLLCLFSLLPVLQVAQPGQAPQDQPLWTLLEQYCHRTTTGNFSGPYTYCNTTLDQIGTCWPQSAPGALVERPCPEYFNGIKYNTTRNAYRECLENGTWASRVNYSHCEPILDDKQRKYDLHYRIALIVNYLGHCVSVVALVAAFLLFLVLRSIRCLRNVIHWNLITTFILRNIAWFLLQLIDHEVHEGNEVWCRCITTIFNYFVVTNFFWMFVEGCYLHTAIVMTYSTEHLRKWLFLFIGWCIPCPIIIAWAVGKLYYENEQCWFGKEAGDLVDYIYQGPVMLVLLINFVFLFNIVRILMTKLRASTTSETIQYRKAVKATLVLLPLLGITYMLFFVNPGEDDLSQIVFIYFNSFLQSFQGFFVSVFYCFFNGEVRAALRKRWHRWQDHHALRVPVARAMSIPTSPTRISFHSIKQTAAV

Experiments:
rCRF-R2α [1] = target: T1, rCRF-R2α (Rattus norvegicus, UniProt P47866); assay: cAMP accumulation in CHO cells stably expressing rCRF-R2α; type: cell-based; details: peptides for 20 min at 37° C
Experimental: (§1) Chinese hamster ovary cells stably transfected with either human CRF-R1 or murine CRF-R2 were plated into 48-well tissue culture dishes (Costar) and allowed to recover for 24 h. The medium was changed at least 2 h before treatments to DMEM/0.1% FBS. The cells were preincubated with 0.1 mM 3-isobutyl-1-methylxanthine for 30 min and then exposed to peptides for 20 min at 37° C. Intracellular cAMP accumulation in CHO cells stably transfected with either CRF-R1 or CRF-R2 was used as a measure of receptor activation. […] The potencies of Ucn II and III to activate CRF-R2α and CRF-R2β are approximately equal and nearly equivalent to that of Ucn. Thus, in the cAMP stimulation assay, both Ucn II and III show 'selectivity for CRF-R2 over CRF-R1, but no preference with respect to CRF-R2α and CRFR-2β. Further, the relative potencies of murine and human Ucn II and Ucn III to functionally activate CRF-R2 overlap in spite of the lower affinity of human Ucn III for binding to CRF-R2.

hCRF-R1 [2] = target: T2, hCRF-R1 (Homo sapiens, UniProt P34998); assay: cAMP accumulation in CHO cells stably expressing hCRF-R1; type: cell-based; details: peptides for 20 min at 37° C
T2 construct: expressed in transfected cells
T2 sequence (P34998 24-415): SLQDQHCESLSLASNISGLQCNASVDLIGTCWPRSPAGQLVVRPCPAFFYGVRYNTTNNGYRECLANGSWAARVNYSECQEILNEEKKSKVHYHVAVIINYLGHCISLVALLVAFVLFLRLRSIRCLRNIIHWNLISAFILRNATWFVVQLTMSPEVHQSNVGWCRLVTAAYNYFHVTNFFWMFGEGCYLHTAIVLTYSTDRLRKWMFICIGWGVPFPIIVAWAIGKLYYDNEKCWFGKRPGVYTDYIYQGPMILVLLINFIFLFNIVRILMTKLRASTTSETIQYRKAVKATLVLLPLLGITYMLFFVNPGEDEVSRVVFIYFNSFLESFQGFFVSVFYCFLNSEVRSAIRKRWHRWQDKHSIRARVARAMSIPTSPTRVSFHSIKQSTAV

CRF-R2β = target: T3, CRF-R2β (Rattus norvegicus, UniProt P47866); assay: cAMP accumulation in A7r5 rat aortic smooth muscle cells expressing endogenous CRF-R2β; type: cell-based
T3 construct: cells expressing endogenous CRF-R1 (cultured primary anterior pituitary cells, (5)) or CRF-R2β (A7r5 cells, (27)); endogenous in cells; host or cells: A7r5 rat aortic smooth muscle cells
Experimental: The abilities of Ucn II and Ucn III to activate adenylate cyclase in cells expressing endogenous CRF-R1 (cultured primary anterior pituitary cells, (5)) or CRF-R2β (A7r5 cells, (27)). Rat aortic smooth muscle cells, A7r5, were plated into 48-well culture dishes and allowed to recover for 48 h. Cells were starved in DMEM/0.2% FBS overnight before the experiment. The cells were preincubated with 0.1 mM 3-isobutyl-1-methylxanthine for 30 min and then exposed to peptides for 20 min at 37° C. Rat anterior pituitary cells were established in culture (28) and treated with test peptides for 45 min at 37° C. Intracellular cAMP was extracted from all cells and measured from triplicate wells using a radioimmunoassay kit (Biomedical Technologies). Potencies were determined using the PRISM […].

mCRF-R2β [3] = target: T4, mCRF-R2β (Mus musculus, UniProt Q60748); assay: cAMP accumulation in CHO cells stably expressing mCRF-R2β; type: cell-based; details: peptides for 20 min at 37° C
T4 construct: expressed in transfected cells
Experimental: as §1

mCRF-R2β [4] = target: T4, mCRF-R2β; assay: Competitive displacement of [125I-Tyr0,Glu1,Nle17]-sauvagine from membranes of CHO cells stably expressing mCRF-R2β; details: three to six independent experiments; average from log10 values; read-out: Binding to Membranes from CHO cells stably expressing mCRF-R2β (Ki)
Experimental: (§2) The synthesized urocortin III was assayed for binding to the CRF-R1, CRF-R2α and CRF-R2β receptors by competitive displacement of ^251I[Tyr^0,Glu^1,Nle^17]sauvagine from Chinese hamster ovary cells stably expressing each receptor type. Stably transfected cell lines expressing CRF-R2α were generously provided by Demitri Grigoriadis, Neurocrine Biosciences Inc. Crude membrane fractions were prepared from Chinese hamster ovary cells stably expressing either cloned human CRF-R1 or mouse CRF-R2β as described (5). Test peptides and radio-ligand, [^125ITyr^0,Glu^1,Nle^17]-sauvagine, diluted in assay buffer (20 mM Hepes/2 mM EGTA/0.1% BSA/10% sucrose, pH 7.6), were combined with membrane fractions (10 μg) in MAGV microtiter plates (Millipore) precoated with 0.1% polyethyleneimine. After 90 min at room temperature, the reaction mixture was filtered and washed twice with assay buffer. The radioligand complex was quantified by gamma-counting. Inhibitory binding constants, Ki's, were determined by […].
(§3) Data from at least 3 experiments were pooled and inhibitory dissociation constant (Ki) values were calculated using the Graphpad Prism program EC50 values. The average of their log10 value was calculated and used to exponentiate the number 10 to determine an ‘average’ EC50 value. The error was determined by calculating the standard deviation of the log10 values, by which the number 10 was exponentiated to determine an error factor. The calculated EC50 was then divided or multiplied by the error factor to determine the lower and upper error bounds, respectively.

hCRF-R1 [5] = target: T2, hCRF-R1; assay: Competitive displacement of [125I-Tyr0,Glu1,Nle17]-sauvagine from membranes of CHO cells stably expressing hCRF-R1; details: three to six independent experiments; average from log10 values; read-out: Binding to Membranes from CHO cells stably expressing hCRF-R1 (Ki)
rCRF-R2α [6] = target: T1, rCRF-R2α; assay: Competitive displacement of [125I-Tyr0,Glu1,Nle17]-sauvagine from membranes of CHO cells stably expressing rCRF-R2α; details: three to six independent experiments; average from log10 values; read-out: Binding to Membranes from CHO cells stably expressing rCRF-R2α (Ki)
Experimental: as §2, §3

EC50 (rCRF-R2α [1]) | EC50 (hCRF-R1 [2]) | EC50 (CRF-R2β) | EC50 (mCRF-R2β [3]) | Ki (mCRF-R2β [4]) | Ki (hCRF-R1 [5]) | Ki (rCRF-R2α [6]) | Compound
0.14 nM | > 100 nM | 0.18 nM | 0.05 nM | 0.66 nM | > 100 nM | 2.1 nM | CC[C@H](C)[C@H](NC(=O)[C@H](CCC(N)=O)NC(=O)[C@H](C)NC(=O)[C@H](CC(N)=O)NC(=O)[C@@H](NC(=O)[C@H](C)NC(=O)[C@H](C)NC(=O)[C@H](CCC(N)=O)NC(=O)[C@H](CC(N)=O)NC(=O)[C@H](CCCNC(=N)N)NC(=O)[C@H](C)NC(=O)[C@H](C)NC(=O)[C@H](CCCCN)NC(=O)[C@H](Cc1ccc(O)cc1)NC(=O)[C@H](CCCNC(=N)N)NC(=O)[C@H](C)NC(=O)[C@H](CCC(N)=O)NC(=O)[C@H](CCC(=O)O)NC(=O)[C@H](CC(C)C)NC(=O)[C@H](CC(C)C)NC(=O)[C@@H](NC(=O)[C@H](CCCNC(=N)N)NC(=O)[C@H](CC(C)C)NC(=O)[C@H](CC(C)C)NC(=O)CNC(=O)[C@@H](NC(=O)[C@@H]1CCCN1C(=O)[C@@H](NC(=O)[C@H](CC(=O)O)NC(=O)[C@H](CC(C)C)NC(=O)[C@H](CO)NC(=O)[C@H](CC(C)C)NC(=O)[C@@H](NC(=O)[C@@H](N)C(C)C)[C@@H](C)CC)C(C)C)[C@@H](C)CC)[C@@H](C)CC)[C@@H](C)O)C(=O)N[C@@H](CC(C)C)C(=O)N[C@@H](C)C(=O)N[C@@H](Cc1c[nH]cn1)C(=O)N[C@H](C(N)=O)C(C)C [Urocortin II (mouse), Mouse Urocortin II, reference compound]
0.16 nM | > 100 nM | 80.9 nM | 0.12 nM | 13.5 nM | > 100 nM | 21.7 nM | CC[C@H](C)[C@H](NC(=O)[C@H](CCC(N)=O)NC(=O)[C@H](C)NC(=O)[C@H](CCSC)NC(=O)[C@H](CC(C)C)NC(=O)[C@H](Cc1c[nH]cn1)NC(=O)[C@H](C)NC(=O)[C@H](CC(N)=O)NC(=O)[C@H](C)NC(=O)[C@H](C)NC(=O)[C@H](C)NC(=O)[C@H](CCC(N)=O)NC(=O)[C@H](C)NC(=O)[C@H](CCCNC(=N)N)NC(=O)[C@H](CC(C)C)NC(=O)[C@H](CC(N)=O)NC(=O)[C@H](CCCCN)NC(=O)[C@H](C)NC(=O)[C@H](CCCCN)NC(=O)[C@H](C)NC(=O)[C@@H](NC(=O)[C@H](CC(N)=O)NC(=O)[C@H](Cc1ccccc1)NC(=O)[C@H](CC(C)C)NC(=O)[C@H](CC(C)C)NC(=O)[C@H](CC(N)=O)NC(=O)[C@H](CCSC)NC(=O)[C@@H](NC(=O)[C@H](CC(N)=O)NC(=O)[C@@H](NC(=O)[C@@H]1CCCN1C(=O)[C@@H](NC(=O)[C@H](CC(=O)O)NC(=O)[C@H](CC(C)C)NC(=O)[C@H](CO)NC(=O)[C@H](CC(C)C)NC(=O)[C@@H](NC(=O)[C@@H](N)Cc1ccccc1)[C@@H](C)O)C(C)C)[C@@H](C)O)[C@@H](C)CC)[C@@H](C)CC)C(N)=O [Urocortin III (human), Human urocortin III]
0.073 nM | > 100 nM | 3.7 nM | 0.081 nM | 1.8 nM | > 100 nM | 5 nM | CC[C@H](C)[C@H](NC(=O)[C@H](CCC(N)=O)NC(=O)[C@H](C)NC(=O)[C@H](CCSC)NC(=O)[C@H](CC(C)C)NC(=O)[C@H](CCC(N)=O)NC(=O)[C@H](C)NC(=O)[C@H](CC(N)=O)NC(=O)[C@H](C)NC(=O)[C@H](C)NC(=O)[C@H](C)NC(=O)[C@H](CCCCN)NC(=O)[C@H](C)NC(=O)[C@H](CCCNC(=N)N)NC(=O)[C@H](CC(C)C)NC(=O)[C@H](CC(N)=O)NC(=O)[C@H](CCCCN)NC(=O)[C@H](C)NC(=O)[C@H](CCCCN)NC(=O)[C@H](CC(=O)O)NC(=O)[C@@H](NC(=O)[C@H](CC(N)=O)NC(=O)[C@H](Cc1ccccc1)NC(=O)[C@H](CC(C)C)NC(=O)[C@@H](NC(=O)[C@H](CC(N)=O)NC(=O)[C@H](CCSC)NC(=O)[C@@H](NC(=O)[C@H](CC(N)=O)NC(=O)[C@@H](NC(=O)[C@@H]1CCCN1C(=O)[C@@H](NC(=O)[C@H](CC(=O)O)NC(=O)[C@H](CC(C)C)NC(=O)[C@H](CO)NC(=O)[C@H](CC(C)C)NC(=O)[C@@H](NC(=O)[C@@H](N)Cc1ccccc1)[C@@H](C)O)C(C)C)[C@@H](C)O)[C@@H](C)CC)[C@@H](C)CC)[C@@H](C)CC)C(N)=O [Urocortin III (mouse), Mouse urocortin III]
